From PubChem BioAssay AID624263 (National Center for Advancing Translational Sciences (NCATS), 2012) come the findings set out here.

Values joined by “and” are separate entries in the source; they are usually repeats but may differ in a detail not shown here. Equal values may be shown once. Only a part is listed here, and it is no random draw. Some results for these compounds are left out of this collection, so the calls shown say nothing about other tests. Active and inactive are the calls of the source. Calls follow the shape of the dose curve; as a rule, active = well fitted activation curve with a large enough effect; inconclusive = small, poorly fitted or top-dose-only effect; inactive = flat fitted curve, though single readings scatter; cell line not stated here.

The assay is described as follows: A Quantitative High throughput Screen to Identify Chemical Modulators of PINK1 Expression. Also: % of control where 0% means no effect; nearly all actives have a fitted effect of over 65% in size. The settings on record: PINK1 immunofluorescence, high-content cytometry, 24 h; at 76.6 µM (top of the series).
As for `CN(C)C1(CNC(=O)c2ccccc2F)CCCCC1`, the activation (PINK1 increase) was inactive: -0.47%.
In the case of `Cc1ccc(C(=O)NCC2(N3CCCCC3)CCCCC2)cc1`, the activation (PINK1 increase) is inactive: 2.75%.
As for `CC(C)N1C(=O)CC2(CCN(CCOC(=O)C(O)(c3ccccc3)c3ccccc3)CC2)C1=O`, the figure is inactive: 1.47%; as for `CCN(CC)CC(C)C(C)OC(=O)C(O)(c1ccccc1)c1ccccc1` (configuration not stated), inactive: -1.06%.
As for `CN(C)C1(CNC(=O)c2cccc(Cl)c2)CCCCC1`, the figure is inactive: -0.193%; as for `COc1cc(SC)ccc1C(=O)NCC1(N(C)C)CCCCC1`, inactive: 3.27%; as for `CN1[C@@H]2CC[C@H]1CC(OC(=O)C(O)(c1ccccc1)c1ccccc1)C2` (some centres not stated), inactive: 0.833%.
As for `O=C(NCC1(N2CCCCC2)CCCCC1)c1cc([N+](=O)[O-])ccc1Cl`, the figure is inactive: -0.429%.
With `CCN1CCCC(OC(=O)C2(O)c3ccccc3C=Cc3ccccc32)C1` (configuration not stated), the activation (PINK1 increase) is inactive: -1.53%.
As to `Cc1cc(C(=O)NCC2(N3CCCCC3)CCCCC2)ccc1[N+](=O)[O-]`, the activation (PINK1 increase) was inactive: 3.14%.
As for `O=C(NCC1(N2CCCCC2)CCCCC1)c1cccc(Br)c1`, the figure is inactive: 0.0765%; as for `COc1ccc(C(=O)NCC2(N(C)C)CCCCC2)cc1`, inactive: -1.63%.
As for `CCOc1cccc(C(=O)NCC2(N(C)C)CCCCC2)c1`, the figure is inactive: 1%; as for `C=CCN1CCN(CCOC(=O)C(O)(c2ccccc2)c2ccccc2)CC1`, inactive: 1.01%.
As for `O=C(NCC1(N2CCCCC2)CCCCC1)c1cc(F)c(F)cc1Cl`, the figure is inactive: 5.31%; as for `CCCCOc1ccccc1C(=O)NCC1(N(C)C)CCCCC1`, inactive: -0.0513%.
For `Cc1ccccc1C(=O)NCC1(N2CCCCC2)CCCCC1`, the activation (PINK1 increase) is inactive: -0.607%.
As for `CN(C)C1(CNC(=O)c2ccccc2[N+](=O)[O-])CCCCC1`, the figure is inactive: 2.09%; as for `CN(C)c1ccc(C(=O)NCC2(N(C)C)CCCCC2)cc1`, inactive: 0.0703%.
For `CN(C)C1CCCC1OC(=O)C(O)(c1ccccc1)c1ccccc1` (configuration not stated), the activation (PINK1 increase) was inactive: 1.37%.
As for `O=C(NCC1(N2CCCCC2)CCCCC1)c1cccc(Cl)c1`, the figure is inactive: -0.837%; as for `COc1ccc(C(=O)NCC2(N(C)C)CCCCC2)cc1Cl`, inactive: -1.84%; as for `COc1cccc(C(=O)NCC2(N3CCCCC3)CCCCC2)c1`, inactive: -1.03%.
As for `COc1ccc(Cl)cc1C(=O)NCC1(N(C)C)CCCCC1`, the figure is inactive: 0.514%; as for `COc1cc(C(=O)NCC2(N(C)C)CCCCC2)c([N+](=O)[O-])cc1OC`, inactive: 1.71%; as for `CN(C)C1(CNC(=O)c2ccc(Br)cc2)CCCCC1`, inactive: -2.2%.
As for `O=C(CBr)c1ccc(Cl)cc1`, the figure is inactive: 0.273%.
For the molecule `CN(C)c1cccc(C(=O)NCC2(N(C)C)CCCCC2)c1`, the activation (PINK1 increase) is inactive: -0.583%.
With `CC(C)Oc1ccc(C(=O)NCC2(N(C)C)CCCCC2)cc1`, the activation (PINK1 increase) is inactive: -1.69% and inactive: 2.05%.
As for `O=C(OCCN1CCCC1)C(O)(c1ccccc1)c1ccccc1`, the figure is inactive: 0.673%; as for `Cc1cccc(C(=O)NCC2(N(C)C)CCCCC2)c1`, inactive: 0.907%; as for `COc1cc(C(=O)NCC2(N(C)C)CCCCC2)cc(OC)c1OC`, inactive: 0.669%.
For `COc1ccc(Br)c(C(=O)NCC2(N3CCCCC3)CCCCC2)c1`, the activation (PINK1 increase) was inactive: 1.51%.
As for `C=C(C)C#CC(O)(C(=O)OC1CCN(C)CC1)c1ccccc1` (configuration not stated), the figure is inactive: 3.37%.
Take `CC(C)COc1ccc(C(=O)NCC2(N(C)C)CCCCC2)cc1`: the activation (PINK1 increase) was inactive: -1.52%.
As for `O=C(OC1CN2CCC1CC2)C(CO)(c1ccccc1)c1ccccc1` (configuration not stated), the figure is inactive: 0.419%.
Consider `COc1cccc(C(=O)NCC2(N3CCOCC3)CCCCC2)c1`, for which the activation (PINK1 increase) is inactive: -1.06%.
